Reference: EP0076669A1, “Novel 3-phenyl-1-indanamines, pharmaceutical compositions and methods of preparation” (KEFALAS A/S, priority 1981, dated 1983)
Where two headings read alike, the source gives them in different places.

Sequences of proteins named here, by UniProt entry; tags and fusion partners are left off. Residues count along the entry.
UniProt P31652, whole entry: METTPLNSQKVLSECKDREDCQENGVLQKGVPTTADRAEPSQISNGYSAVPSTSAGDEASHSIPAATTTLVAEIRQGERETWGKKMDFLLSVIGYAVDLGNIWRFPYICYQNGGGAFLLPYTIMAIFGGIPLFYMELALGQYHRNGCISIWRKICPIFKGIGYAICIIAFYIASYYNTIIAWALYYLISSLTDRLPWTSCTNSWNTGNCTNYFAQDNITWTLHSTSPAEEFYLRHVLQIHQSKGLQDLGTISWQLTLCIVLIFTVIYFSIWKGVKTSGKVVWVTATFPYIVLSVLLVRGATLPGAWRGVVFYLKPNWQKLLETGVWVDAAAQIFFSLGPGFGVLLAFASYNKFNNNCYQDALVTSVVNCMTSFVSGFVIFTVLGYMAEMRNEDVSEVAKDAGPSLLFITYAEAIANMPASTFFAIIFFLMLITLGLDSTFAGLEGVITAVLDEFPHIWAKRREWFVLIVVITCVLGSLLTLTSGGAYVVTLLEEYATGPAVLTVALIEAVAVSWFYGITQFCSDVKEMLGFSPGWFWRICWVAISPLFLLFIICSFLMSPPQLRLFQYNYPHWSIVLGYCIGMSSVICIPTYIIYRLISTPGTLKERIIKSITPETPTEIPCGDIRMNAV
UniProt P23977, whole entry: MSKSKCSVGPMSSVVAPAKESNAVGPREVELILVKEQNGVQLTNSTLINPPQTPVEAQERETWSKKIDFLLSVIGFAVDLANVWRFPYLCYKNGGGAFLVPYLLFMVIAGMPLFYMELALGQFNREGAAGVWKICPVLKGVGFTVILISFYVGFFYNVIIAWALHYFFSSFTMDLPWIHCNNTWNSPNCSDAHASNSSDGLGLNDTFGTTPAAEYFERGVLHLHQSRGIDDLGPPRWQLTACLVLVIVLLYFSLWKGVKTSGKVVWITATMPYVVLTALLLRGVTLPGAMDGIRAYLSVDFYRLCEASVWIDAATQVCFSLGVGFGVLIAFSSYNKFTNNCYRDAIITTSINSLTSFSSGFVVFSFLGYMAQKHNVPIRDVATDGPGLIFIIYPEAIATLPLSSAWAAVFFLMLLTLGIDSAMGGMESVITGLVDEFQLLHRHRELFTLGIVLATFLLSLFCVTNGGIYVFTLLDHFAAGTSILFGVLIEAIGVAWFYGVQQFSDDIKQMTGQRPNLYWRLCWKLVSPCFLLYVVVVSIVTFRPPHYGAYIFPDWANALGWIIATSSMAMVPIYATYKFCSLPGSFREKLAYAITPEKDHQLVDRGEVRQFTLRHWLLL
UniProt Q63380, 1-617: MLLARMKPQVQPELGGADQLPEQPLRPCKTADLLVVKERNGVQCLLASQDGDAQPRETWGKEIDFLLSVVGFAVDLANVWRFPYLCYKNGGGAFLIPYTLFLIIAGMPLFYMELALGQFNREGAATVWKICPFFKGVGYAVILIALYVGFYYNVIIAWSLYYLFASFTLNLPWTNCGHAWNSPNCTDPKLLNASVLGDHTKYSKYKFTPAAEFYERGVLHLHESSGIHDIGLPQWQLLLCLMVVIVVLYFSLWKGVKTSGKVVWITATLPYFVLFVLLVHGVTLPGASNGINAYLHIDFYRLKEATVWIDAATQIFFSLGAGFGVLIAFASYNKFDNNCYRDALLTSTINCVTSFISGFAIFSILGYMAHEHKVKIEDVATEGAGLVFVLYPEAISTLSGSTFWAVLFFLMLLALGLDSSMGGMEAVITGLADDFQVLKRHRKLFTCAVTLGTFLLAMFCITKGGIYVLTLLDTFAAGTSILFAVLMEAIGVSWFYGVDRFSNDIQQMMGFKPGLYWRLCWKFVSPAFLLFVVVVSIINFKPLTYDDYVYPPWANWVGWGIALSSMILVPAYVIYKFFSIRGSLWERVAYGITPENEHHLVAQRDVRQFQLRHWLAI

Tests used:
[1] = test system: tetrabenazine induced ptosis; assay: Tetrabenazine ptosis antagonism; format: in vivo; settings: i.p., mice, tetrabenazine 40 mg/kg i.p. 30 min after test substance
Method: For insoluble substances the doses 0, 1/8, 1/32 and 1/128 of "i.^p. LD50" are used. 3 mice are used for each dose level. Thirty minutes after administration of test substance, tetrabenazine, 40 mg/kg, is injected i.p. Ptosis is evaluated 30 minutes after administration of tetrabenazine, the following rating scale being used: 0 = normal eyes, 1=1/4 closed eyes, 2 = 1/2 closed eyes, 3 = 3/4 closed eyes and 4 = completely closed eyes. Ptosis is evaluated 30 seconds after tilting the cage 3 times. The tilting is carried out in such a way that the animals slide along the floor of the cage.
The results are recorded as % inhibition of ptotic score calculated on the basis of the score of the control group. If ptotic score for the control group is < 10 the test is rejected and another is performed. The registration can also be done as an on line procedure.

[2] = target: ^3H-5-HT uptake in synaptosomes (Rattus norvegicus, UniProt P31652); assay: Inhibition of 3H-5-HT uptake in synaptosomes in vitro; format: biochemical, Rats; settings: read-out: Uptake Inhibition IC50 5-HT; rat brain synaptosomes, 3H-5-HT 10 nM; tested form: HCl
[3] = target: ^3H-DA uptake in striatal synaptosomes (Rattus norvegicus, UniProt P23977)
[4] = target: ^3H-1-NA uptake in synaptosomes (Rattus norvegicus, UniProt Q63380); assay: Inhibition of 3H-1-NA uptake in synaptosomes in vitro; format: biochemical, Rats; settings: read-out: Uptake Inhibition IC50 NA; rat occipital cortex synaptosomes, 3H-1-NA 10 nM; tested form: HCl
[5] = read-out: Uptake Inhibition IC50 DA, 3H-DA 12.5 nM, tested form: HCl

Row | SMILES | Tetrabenazine ptosis, ED50 ([1]; tested form: HCl) | IC50 [2] [nM] | IC50 [3, 5] [nM] | IC50 [4] [nM] | Tetrabenazine ptosis, ED50 ([1]; tested form: HCl hydrate) | IC50 ([3]; read-out: Uptake Inhibition IC50 DA, 3H-DA 12.5 nM, tested form: HCl hydrate) [nM]
1 | CCCN(CCC)[C@H]1C[C@@H](c2ccc(F)cc2)c2ccc(F)cc21 (relative stereo) | >109 /u mol/kg | 6700 | 840 | – | – | –
2 | CCCN(CCC)[C@H]1C[C@H](c2ccc(F)cc2)c2ccc(F)cc21 (relative stereo) | >109 /u mol/kg | 5400 | 300 | 860 | – | –
3 | CCN(CC)[C@H]1C[C@@H](c2ccc(F)cc2)c2ccc(C)cc21 (relative stereo) | – | – | – | – | >114 /u mol/kg | 470
